## Ab-14 light chain CDR variants: yeast mating affinities

Source: Engelhart et al. 2022 (doi:10.1038/s41597-022-01779-4), MIT Lincoln Laboratory and A-Alpha Bio; data file from the FLAb repository.

Antigen: PDVDLGDISGINAS, a 14-residue peptide of the SARS-CoV-2 spike HR2 region.

Parent scFv Ab-14: VH joined to VL by a (GGGGS)3 linker. Changes lie in the light chain CDRs alone.
VH: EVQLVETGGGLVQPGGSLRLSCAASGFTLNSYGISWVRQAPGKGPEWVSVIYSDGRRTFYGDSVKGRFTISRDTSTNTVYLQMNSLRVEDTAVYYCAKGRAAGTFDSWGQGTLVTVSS
VL: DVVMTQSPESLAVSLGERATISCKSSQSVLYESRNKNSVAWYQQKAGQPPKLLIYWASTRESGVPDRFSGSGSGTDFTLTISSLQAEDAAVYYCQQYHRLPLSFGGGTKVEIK

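Phage display of a naive human antibody library on the peptide gave the parent. AAYL50 was designed without a model: most single CDR substitutions and a random sample of double and triple ones. The scFvs were displayed on barcoded MATa yeast, the peptide on MATalpha yeast. Mating (16 h, 30 °C) was followed by selection of diploids and sequencing of their barcodes. Each replicate has its own calibration line, from reference interactions of the BCL2 family. The assay was run in three technical replicates.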

Each variant is given by its three light chain CDRs, as the data file delimits them; those of the parent are KSSQSVLYESRNKNSVA, WASTRES, QQYHRLPLS. Values are log10 of the apparent Kd in nM; lower means stronger binding. The mean shown is taken over the replicates in which the pair was detected. Where no diploid with the target was found in any replicate, the entry reads "no signal": below detection, most likely a poor binder, though not proof of it. In this assay the parent's reference entry averaged 0.65; its copy inside this library read 1.68. Empty control strains, which show no peptide, gave a signal in 18% of pairings with library AAYL50; the median was 4.19 and 95% of these signals were weaker than 2.99. No background was subtracted.

| mean, log10 nM | seen in | CDR-L1 | CDR-L2 | CDR-L3 |
|---|---|---|---|---|
| 4.82 | 3 of 3 | KSSQSVLEESRNKNIVA | WASTRES | QQYHRLPRS |
| 1.62 | 3 of 3 | KSSQSVNYESRNKQSEA | WASTRES | QQYHRLPLS |
| no signal | 0 of 3 | KSSQTVLYESRNKNSVA | WAITRES | NQYHRLPLS |
| no signal | 0 of 3 | KGSQSVLYMSRNKNSVA | WASCRES | QQYHRLPLS |
| 0.28 | 3 of 3 | KSSQSVEYESRNKNSVA | WASTRES | VQYHRLPLS |
| 2.19 | 3 of 3 | KSSQEVLYEMRNKNSVA | WASTRES | QQYHRGPLS |
| 3.65 | 1 of 3 | KSSPSVLYESRNMNSVA | WASGRES | QQYHRLPLS |
| 3.81 | 1 of 3 | KSSQSAFYESRNKPSVA | WASTRES | QQYHRLPLS |
| 1.57 | 3 of 3 | KSSLSVLYESRNKNSVA | KASSRES | QQYHRLPLS |
| 1.35 | 3 of 3 | KSSQSVLYESRNKNSVA | WAVTRET | QQYHRLYLS |
| 1.48 | 3 of 3 | KSSQSVLYESNNTNSVA | WASTRDS | QQYHRLPLS |
| 3.15 | 1 of 3 | KSSQSVLYLSRNDNSVA | WASTEES | QQYHRLPLS |
| 2.69 | 3 of 3 | KSSQSVLYGSRNKNSVA | WASCRES | QQYHRLPLH |
| 4.20 | 3 of 3 | KSSQSVLYVGRNKNSVA | WAWTRES | QQYHRLPLS |
| no signal | 0 of 3 | KSSQSVAYESRNKNEVK | WASTRES | QQYHRLPLS |
| 3.03 | 1 of 3 | KSSYSVLYESRNKNSVR | WASTRES | QQYHGLPLS |
| 0.67 | 3 of 3 | KQSQSVLYNSGNKNSVA | WASTRES | QQYHRLPLS |
| 2.68 | 3 of 3 | KSSQSVLYESRTKNSVA | WASTRDS | QPYHRLPLS |
| no signal | 0 of 3 | KSSQSVLYESRNKQSVA | WMSTRES | QQYHRCPLS |
| 1.70 | 3 of 3 | ISSQSVPYESRNKHSVA | WASTRES | QQYHRLPLS |
| 2.52 | 3 of 3 | KSSQSVLHESRNKNSVA | WARTRES | QQYHRLPVS |
| no signal | 0 of 3 | KSSQSVLYESRNKNSVA | WAKTKEH | QQYHRLPLS |
| 2.49 | 3 of 3 | CSSQSVLYESRNKNSVA | WASTREY | QYYHRLPLS |
| 2.78 | 3 of 3 | KSSLSVLREWRNKNSVA | WASTRES | QQYHRLPLS |
| 1.94 | 3 of 3 | KSSQSVLWESRNKNSVA | WASTREH | QQDHRLPLS |
| no signal | 0 of 3 | KSSQSVLYESRNKNSVA | WASTREC | SQYHRLPDS |
| 3.51 | 2 of 3 | KSSQSVLDESENKNSVA | WASTRES | QQYDRLPLS |
| no signal | 0 of 3 | KSSKSVLYESRNKNSVA | WHSTRFS | QQYHRLPLS |
| 0.36 | 3 of 3 | KSSQSILYESRNKNSVA | YASTRET | QQYHRLPLS |
| 4.42 | 2 of 3 | KQSQSVLYESRNKNSNA | AASTRES | QQYHRLPLS |
| 4.24 | 1 of 3 | KISQSVLYESRNKNSVA | WASTRES | QYYHRNPLS |
| 1.18 | 3 of 3 | KVSQSVLYESRNKNSVA | WASTRPS | QQYHRLPLS |
| 2.39 | 3 of 3 | KSSQSVLYESRNKNSVA | WASTRAS | DQYHRLPLS |
| no signal | 0 of 3 | KSSQSVLYEYRNKNSRA | WASTRES | QYYHRLPLS |
| 4.32 | 1 of 3 | KSEQSVLYESRNKNSVA | WASTRES | QQYHRLPGF |
| 3.04 | 3 of 3 | VSSQSVLYESRLKNSVA | WASRRES | QQYHRLPLS |
| 1.86 | 3 of 3 | KSSYSVLYESVNKCSVA | WASTRES | QQYHRLPLS |
| no signal | 0 of 3 | KSSQSVLYESRNKNSVA | WASTRES | CQYHFLALS |
| no signal | 0 of 3 | KSSQSVLYESRNKNSYA | WASTRES | QQYHRLPNG |
| 4.67 | 2 of 3 | KSSQSVLYESRNKNSVK | TAYTRES | QQYHRLPLS |
| 2.37 | 3 of 3 | KSSQSVLCESRNKNSVA | WASTRES | QQYHRLPLG |
| 2.71 | 3 of 3 | KSSQSVLYEFRNKNSVA | WASTRES | IQYHRNPLS |
| 0.95 | 3 of 3 | KSSQSMLYESRNKNSVA | WVSTRES | QQYHSLPLS |
| 3.21 | 1 of 3 | KSSQSPLYESRNKNSVA | WASTRES | QQYPRLTLS |
| -0.08 | 3 of 3 | KSSQSVLYESRNCNSVA | DRSTRES | QQYHRLPLS |
| 3.34 | 1 of 3 | KSSQSVLYESRNKNSVM | WASTRES | QQYHRLPLF |
| 3.71 | 2 of 3 | KSSQSVLYESRNKASVW | WASTRRS | QQYHRLPLS |
| 4.40 | 1 of 3 | KSSQSVLLESRNKNEVA | WAYTRES | QQYHRLPLS |
| no signal | 0 of 3 | KSSQSVLYWSRNKNSVA | WASTRES | QQSHRLPNS |
| no signal | 0 of 3 | KSSQSVLYESRNKNSVA | WASTRES | QQDIRLPLS |
| no signal | 0 of 3 | KSSQSVLYESRNKNSWA | WACTRES | QQYHRSPLS |
| no signal | 0 of 3 | KSSQSVLYEPRNKNSDA | WASTRES | QQYHRHPLS |
| no signal | 0 of 3 | KSSQSVYYVSRNKNSVA | WASTRES | QQYHRLPTS |
| 4.93 | 3 of 3 | HSSQSVLYECRNKNSSA | WASTRES | QQYHRLPLS |
| 2.69 | 3 of 3 | KSSQSVLYESRRKNSVA | WASTREF | QQYHVLPLS |
| 1.56 | 3 of 3 | KTLQSVLYASRNKNSVA | WASTRES | QQYHRLPLS |
| 1.40 | 3 of 3 | KQSQSVLSVSRNKNSVA | WASTRES | QQYHRLPLS |
| 1.03 | 3 of 3 | KSSQSVLYESRMKNSVA | WASNRVS | QQYHRLPLS |
| 3.46 | 1 of 3 | KSSQSVLYESRNKNQVA | WASTRES | QQYRRLPLL |
| no signal | 0 of 3 | KSSQSVLYESRNKNSVA | WASTRES | QYYHRAFLS |
| 0.87 | 3 of 3 | KSSQSVLYESRNKNSVA | WASTRES | IGYHRLPLE |
| 3.96 | 3 of 3 | KSSQSVLYELRNKNSVA | WMHTRES | QQYHRLPLS |
| 1.47 | 3 of 3 | KCSQSVLYESRNPNGVA | WASTRES | QQYHRLPLS |
| 3.60 | 3 of 3 | KSSQSVLPESRNKSSVA | WASTRES | QPYHRLPLS |
| 2.51 | 3 of 3 | KSSRSVLYESRNANSVA | WASTRRS | QQYHRLPLS |
| 1.22 | 3 of 3 | KSRQSVLYESRNKNAVA | WTSTRES | QQYHRLPLS |
| no signal | 0 of 3 | KSSCRVLYESRNKNSVA | WASTRET | QQYHRLPLS |
| 2.19 | 3 of 3 | KSSQSRLYESFNKNSVA | WASTRPS | QQYHRLPLS |
| no signal | 0 of 3 | KSSQSVLKESRNKNSVV | WASTTES | QQYHRLPLS |
| 2.54 | 3 of 3 | CSSQSVLYESRNKNGVA | WASQRES | QQYHRLPLS |
| no signal | 0 of 3 | KSSQSVLYESYNKNSVA | WASTRES | QQCHRLPIS |
| no signal | 0 of 3 | KSCQSVLYESRNKNSVA | WASPRES | QQYHRLPLG |
| 5.46 | 2 of 3 | KSSQSVLYESRNKNSVA | WASTRES | QQWGRLPLL |
| 3.12 | 1 of 3 | FSSQSVLYESRNKNSVN | WASTRPS | QQYHRLPLS |

Picked from the list: the 5 lowest averages where every replicate gave a value.

CDR-L1,CDR-L2,CDR-L3,"mean, log10 nM",seen in
KSSQSVLYESRNCNSVA,DRSTRES,QQYHRLPLS,-0.08,3 of 3
KSSQSVEYESRNKNSVA,WASTRES,VQYHRLPLS,0.28,3 of 3
KSSQSILYESRNKNSVA,YASTRET,QQYHRLPLS,0.36,3 of 3
KQSQSVLYNSGNKNSVA,WASTRES,QQYHRLPLS,0.67,3 of 3
KSSQSVLYESRNKNSVA,WASTRES,IGYHRLPLE,0.87,3 of 3